In assay [1] the target is ECD of murine IGSF11, recombinant biotinylated (mouse) (UniProt P0C673). The experiment in a line: ELISA RFU 0.5-1.0. (In general: ELISA stands for enzyme-linked immunosorbent assay.)
The target in assay [2] is extracellular domain (ECD) of human IGSF11 (VSIG3), recombinant (human) (UniProt Q5DX21). The experiment in a line: ELISA RFU 0.5-1.0.

Sequences of proteins named here, by UniProt entry; tags and fusion partners are left off. Residues count along the entry.
UniProt P0C673, 23-240 limits assumed: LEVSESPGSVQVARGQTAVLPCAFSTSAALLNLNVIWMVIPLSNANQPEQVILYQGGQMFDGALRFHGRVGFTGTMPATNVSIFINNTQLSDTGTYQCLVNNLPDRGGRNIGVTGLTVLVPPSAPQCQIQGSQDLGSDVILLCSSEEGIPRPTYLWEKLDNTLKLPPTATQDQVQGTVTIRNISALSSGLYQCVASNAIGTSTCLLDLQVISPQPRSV
UniProt Q5DX21, 23-241: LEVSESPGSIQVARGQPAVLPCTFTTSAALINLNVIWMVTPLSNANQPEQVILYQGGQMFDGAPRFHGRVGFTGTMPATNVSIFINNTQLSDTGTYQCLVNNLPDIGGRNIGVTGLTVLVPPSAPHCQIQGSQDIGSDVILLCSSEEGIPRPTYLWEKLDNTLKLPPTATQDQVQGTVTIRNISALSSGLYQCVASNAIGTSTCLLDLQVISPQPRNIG

In the case of A-018 (scFv format), the ELISA binding signal (RFU) in assay [1] and in assay [2] was 0.5 to 1 rfu in each case.

The values above are taken from patent US20220372138A1.
